{
  "sequences": {"note": "The chains behind the UniProt entries cited, without tags or fusion partners.", "UniProt Q02563, whole entry": "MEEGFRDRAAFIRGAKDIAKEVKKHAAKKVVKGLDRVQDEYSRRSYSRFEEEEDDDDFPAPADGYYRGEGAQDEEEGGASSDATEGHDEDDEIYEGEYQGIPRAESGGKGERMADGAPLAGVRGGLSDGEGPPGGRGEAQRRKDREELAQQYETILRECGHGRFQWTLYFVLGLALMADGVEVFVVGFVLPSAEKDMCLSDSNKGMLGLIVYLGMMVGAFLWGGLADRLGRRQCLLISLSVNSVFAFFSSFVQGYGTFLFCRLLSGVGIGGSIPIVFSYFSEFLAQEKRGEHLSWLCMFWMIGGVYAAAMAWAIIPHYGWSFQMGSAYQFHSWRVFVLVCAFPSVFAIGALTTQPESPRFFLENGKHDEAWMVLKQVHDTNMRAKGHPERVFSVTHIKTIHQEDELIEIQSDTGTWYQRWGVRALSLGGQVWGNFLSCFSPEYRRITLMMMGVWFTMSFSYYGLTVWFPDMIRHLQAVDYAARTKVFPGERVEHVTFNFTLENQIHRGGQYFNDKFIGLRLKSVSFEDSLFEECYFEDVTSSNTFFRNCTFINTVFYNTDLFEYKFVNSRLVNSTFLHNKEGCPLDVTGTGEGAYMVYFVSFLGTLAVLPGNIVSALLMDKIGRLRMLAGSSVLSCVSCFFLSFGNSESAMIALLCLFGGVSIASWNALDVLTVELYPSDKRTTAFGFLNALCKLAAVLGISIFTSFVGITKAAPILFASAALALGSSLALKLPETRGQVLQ"},
  "source": "patent US20070135514A1",
  "about": "“Methods for the identification of agents for the treatment of seizures, neurological diseases, endocrinopathies and hormonal diseases” (priority 2002, published 2007)",
  "key": {"[1]": {"target": "T1, levetiracetam binding site (LBS) (Rattus norvegicus, UniProt Q02563)", "T1 construct": "host or cells: crude rat brain membranes (Noyer et al. 1995; Gillard et al. 2003)", "details": "cited from earlier work"}, "[2]": {"target": "T1, levetiracetam binding site (LBS)", "assay": "[3H]ucb 30889 binding to crude rat brain membranes (kinetic, saturation, competition)", "details": "substance used as radioligand", "procedure": "This example describes the binding properties of [^3H]ucb 30889, (2S)-2-[4-(3-azidophenyl)-2-oxopyrrolidin-1-yl]butanamide, an analogue of levetiracetam. Binding experiments were conducted on crude rat brain membranes at 4° C. as described in Noyer et al. (Euro. J. Pharmacol. 286:137-146 (1995)). Incubation time for equilibrium studies was 120 min. For kinetic and competition studies, [^3H]ucb 30889 (30 Ci/mmol) was used at a concentration of 1.3 nM in 0.5 ml of a Tris-HCl (pH 7.4) buffer containing 2 mM Mg^2+. Localization of the LBS in brain substructures was assessed by autoradiography on 25 μm thick slices incubated under similar conditions. Slides were then washed twice for 10 min at 4° C. in 50 mM Tris-HCl (pH 7.4) containing 0.5% BSA, dried and exposed for 3 weeks to [^3H]Hyperfilm at −20° C. Non-specific binding (NSB) was determined by the inclusion of 1 mM LEV during the incubation period."}},
  "data": [
    {"smiles": "CC[C@@H](C(N)=O)N1CCCC1=O", "note": "[ucb L060]", "values": [
      {"measurement": "affinity relative to levetiracetam (times less)", "setting": "[1]", "result": "about 1000 times"}
    ]},
    {"smiles": "CC[C@@H](C(N)=O)N1CCCC1=O", "note": "[levetiracetam, (S)-α-ethyl-2-oxo-1-pyrrolidine acetamide]", "values": [
      {"measurement": "Bmax (saturation binding)", "setting": "[2]", "result": "4718±413", "unit": "fmol/mg protein"}
    ]}
  ]
}
